The values below are quoted from earlier work in patent publication US20240408074A1, “METHODS FOR THE TREATMENT AND PREVENTION OF NON-VIRAL TICK-BORNE DISEASES AND SYMPTOMS THEREOF OF” (60 DEGREES PHARMACEUTICALS LLC, priority 2023, published 2024).

The structures appear in SMILES notation.

This series concerns P. falciparum. The conditions noted are these: in vivo; cited from earlier work.

As to `COc1cc(NC(C)CCCN)c2ncccc2c1` (stereo not shown) [primaquine], the “activity against the blood stages of P. falciparum” value is “only weak activity”.
